Literature values, collected in US10688087B2, “Pharmaceutical compositions and therapeutic methods employing a combination of a manganese complex compound and a non-manganese complex form of the compound” (PLEDPHARMA AB, priority 2009, dated 2020).

Settings: rats, 50 mg/kg body weight i.p. once daily for 1 or 4 days; cited from earlier work

Question: With manganese (II) chloride as the substance, how does the “increase in manganese level, cerebellum” value read?
Answer: Its value is no more than 427%.

Question: What about the “increase in manganese level, cerebral cortex” value of the same substance?
Answer: The value was “up to 232%”.

Question: What about the “increase in manganese level, globus pallidus” value of the same substance?
Answer: The value was no more than 523%.
